miR-21 reporter: miR-21 reporter, rising signal; HeLa miR-21 FLuc reporter, luciferase, 48 h; Potency, µM (titrated, usually from 38.3 µM), without a hit: top-dose reporter change, positive = more light; AID 2288; 340,000 tested, under 10 active; active = well fitted rising curve with a large enough effect; inconclusive = small, poorly fitted or top-dose-only effect; inactive = no such curve, though single readings can be large or run the other way;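 further: % of control where 0% means no effect; miR-21 action dims this reporter so a rising signal means less miR-21 action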
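HeLa cells stably expressing CMV-driven firefly luciferase with a downstream miR-21 binding sequence, endogenously expressing miR-21, were treated with titrations (up to about 40uM final) for 48 hours at 37 degree Celsius. Luciferase luminescence was read after lysis.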
PINK1 expr mod: changes PINK1 expression; PINK1 immunofluorescence, high-content cytometry, 24 h; Potency, µM (titrated, usually from 76.6 µM), inactives show top-dose activation (PINK1 increase), most hits filed as activators; 410,000 compounds, 0.2% hits; AID 624263; active = well fitted activation curve with a large enough effect; inconclusive = small, poorly fitted or top-dose-only effect; cell line not stated here; note: potency is the fitted concentration of half-maximal effect; % of control where 0% means no effect; nearly all actives have a fitted effect of over 65% in size
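Compound titrations (5 concentrations, 24 h) on a stable cell line; DMSO and CCCP controls. Endpoint: fixed-cell PINK1 immunofluorescence with mitochondrial, cell and nuclear markers, scanned by microplate cytometer.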
IL2 activator: IL-2 activation; IL-2 activation reporter assay, cell-based qHTS; stimulated with anti-CD3/CD4/CD28 beads; in transgenic mouse T cells; activation, % (series mostly up to about 46 µM); 360,000 compounds, 0.065% hits; in the data active = activation above about 50%; inconclusive = mostly about 30% to 49%; note: 0% is about no effect
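Readout is EGFP and DsRed signal by fluorescent plate cytometry after 18 h at 37 degrees C. Transgenic mouse T cells (750/well) received compound for 60 min before bead stimulation (anti-CD3, anti-CD4, anti-CD28); memory T cells served as non-tolerant control.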
Epigenetic derep: regulators of epigenetic silencing causing reporter derepression in mouse cells; 280,000 compounds, 0.2% hits; Potency, µM (top dose mostly 53.9 µM), inactives show top-dose GFP activation, hits mostly activators; murine LDR cells, GFP reporter derepression, 30 h; note: potency is the fitted concentration of half-maximal effect; % of control where 0% means no effect; nearly all actives have a fitted effect of over 60% in size
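Reporter derepression read as number of fluorescent GFP-positive objects, 20-120 um in size, counted by laser-scanning cytometer. Mouse LDR line with an epigenetically silenced CMV-GFP locus; compound incubation 30 h, 37 C.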
uPA generation: blocks generation of uPA at the cell surface | Potency, µM (series often up to 38.3 µM), inactives show at the highest dose activity change, negative = inhibition, hits mostly inhibitors | 330,000 compounds, 0.31% hits | cell surface uPA generation assay, qHTS; active = well fitted inhibition curve with a large enough effect; inconclusive = small, poorly fitted or top-dose-only effect; inactive = no such curve, though single readings can be large or run the other way; tested in mouse RAW 264.7 cells; note: potency is the fitted concentration of half-maximal effect; % is set by controls: 0 for no effect and ±100 for the full control effect; nearly all actives have a fitted effect of over 55% in size
p53 reactivation: re-activators of mutant p53; H1299 p53-A138V BP100-luciferase reporter, luminescence, 24 h; Potency, µM (top dose mostly 92.2 µM), without a hit: top-dose activity change, positive = activation, hits mostly activators; 320,000 compounds, 0.063% hits; AID 504706; note: potency is the fitted concentration of half-maximal effect; % of control where 0% means no effect; nearly all actives have a fitted effect of over 45% in size
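p53-null H1299 cells stably carrying temperature-sensitive p53-A138V and a BP100-luciferase reporter were pinned with compounds (4-point, 1:5 series) and held 24 hrs at 37 deg C. Luminescence was read 10 min after detection reagent.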
Starred values were filed as active, the others as inactive; u = inconclusive; x = no result given; [ ] = another dose, or the depositor's remark. Rows were chosen to be rich in hits. Some 0.62% of all compounds tested hit in one or more screens of this group. Unless noted, calls come from the whole dose curve; as a rule, active = well fitted curve in the direction sought with a large enough effect; inconclusive = small, poorly fitted or top-dose-only effect, or another doubt; inactive = no such curve, though single readings can be large; an effect the other way counts as inactive or inconclusive.

Screens by letter – A = miR-21 reporter; B = PINK1 expr mod; C = IL2 activator; D = Epigenetic derep; E = uPA generation; F = p53 reactivation
mol: COc1ccc(NC(=O)c2nc(C)c(C3(C)CC(c4cccnc4)=NO3)s2)cc1 (stereo not drawn)
  A: 22%; B: 3%; C: 0; D: 1%; E: 1.6µM*; F: 4%

mol: Cc1nc(C(=O)Nc2ccc(Cl)cc2)sc1C1(C)CC(c2cccc([N+](=O)[O-])c2)=NO1 (stereo not drawn)
  A: x; B: 0%; C: -2; D: x; E: 7%; F: x

mol: CCOC(=O)c1c(NC(=O)c2ccn(CC)n2)sc2c1CCCC2
  A: -10%; B: 10µM*; C: -1; D: 1%; E: 10%; F: -14%

mol: O=C(O)c1ccc(Cl)c(S(=O)(=O)Nc2ccccc2)c1
  A: x; B: x; C: x; D: 0%; E: x; F: x

mol: CCOC(=O)CNC(c1ccccc1)c1cc(Br)ccc1NC(=O)CCN1CCOCC1 (stereo not drawn)
  A: -1%; B: 2%; C: 0; D: 2%; E: 13µM*; F: -20%

mol: COc1ccc(-c2cc(C)cc3c2OC(CNC(=O)c2cc(C(C)C)on2)C3)nn1 (stereo not drawn)
  A: x; B: 0%; C: x; D: x; E: x; F: x

mol: CCOc1ccc(-c2cn3ccccc3n2)cc1[N+](=O)[O-]
  A: -80%; B: 1%; C: -4; D: 0%; E: -10%; F: u

mol: CCCCOc1ccc(-c2cn3ccccc3n2)cc1[N+](=O)[O-]
  A: -20%; B: 4%; C: -3; D: 3%; E: 7.9µM*; F: u

mol: Cc1cc2ccc(Cl)nc2nc1C
  A: x; B: 0%; C: x; D: x; E: x; F: x

mol: O=C(CCl)N1CCN(S(=O)(=O)c2ccc3c(c2)CCC3)CC1
  A: x; B: -1%; C: 0; D: x; E: 1µM*; F: -41%

mol: COCC(=O)Nc1cc(C(=O)N2CCCC(C(N)=O)C2)cc2nc(-c3ccccc3)n(C)c12 (stereo not drawn)
  A: x; B: 0%; C: x; D: x; E: x; F: x

mol: CCOC(=O)Cc1nnc2c(Nc3ccc(Cl)cc3)nc3nonc3n12
  A: 28%; B: 45µM*; C: -2; D: 0%; E: -2%; F: -3%

mol: Cc1ccccc1C1(CC(=O)N2CC3CC4CC(C3)CC2C4)CC(=O)N(Cc2cccnc2)C1=O (stereo not drawn)
  A: x; B: 0%; C: x; D: x; E: x; F: x

mol: CCC(=O)N/C(N)=N/c1nc(C)c2cc(OC)ccc2n1
  A: -28%; B: 3.5µM*; C: 0; D: -1%; E: x; F: 37%

mol: Cc1cc(C(=O)Nc2ccccc2-c2nc(CNC(=O)C3(C)CCCCC3)c(C)o2)c(C)o1
  A: x; B: -1%; C: x; D: x; E: x; F: x

mol: Cc1oc(-c2ccccc2NC(=O)c2ccccc2)nc1CNC(=O)c1cccc(-n2cccn2)c1
  A: x; B: 4%; C: x; D: x; E: x; F: x

mol: CC(=O)N1CCc2c(sc(NC(=O)c3ccc([N+](=O)[O-])o3)c2C#N)C1
  A: -23%; B: -1%; C: 0; D: 11µM*; E: -22%; F: 3%

mol: COc1cc(-c2ccc(Cl)cn2)cc2c1OCCN(C(=O)c1ccccc1-n1cccn1)C2
  A: x; B: 2%; C: x; D: x; E: x; F: x

mol: O=C(Nc1cccc(Cl)c1)C1C2CCC3C(CCC21)C3(Cl)Cl (stereo not drawn)
  A: 21%; B: 22µM*; C: 0; D: 0%; E: -6%; F: 12%

mol: O=C(Nc1ccccc1)C1C2CCC3C(CCC21)C3(Cl)Cl (stereo not drawn)
  A: -4%; B: 2%; C: -1; D: 0%; E: 5%; F: -11%

mol: COc1ccc(S(=O)(=O)NCc2nc(N3CCCC3)c3cccc(C)c3n2)cc1OC
  A: x; B: 0%; C: x; D: x; E: x; F: x

mol: COCC(=O)Nc1cc(C(=O)N2CC3CCCC2C3)c2c(c1)nc(-c1ccncc1)n2C (stereo not drawn)
  A: x; B: 2%; C: x; D: x; E: x; F: x

mol: O=C(Nc1ccccc1O)c1ccccc1O
  A: -11%; B: -4%[38.3 µM]; C: 0; D: 7%; E: -13%; F: 13%

mol: CC(=O)/C=C(\C)Nc1ccccc1O
  A: -5%; B: 1%; C: 0; D: 6%; E: 7.9µM*; F: u

mol: O=C1CCN(Cc2cccn2-c2ccccn2)CCN1Cc1ccccc1C(F)(F)F
  A: x; B: 1%; C: x; D: x; E: x; F: x

Next records follow:
Screens by letter – A = miR-21 reporter; B = PINK1 expr mod; C = IL2 activator; D = Epigenetic derep; E = uPA generation; F = p53 reactivation
mol: Cc1c(/C=N/NC(=O)c2ccc(O)cc2)c2ccccn2c1C(=O)c1ccc(F)cc1
  A: -9%; B: 0%; C: -1; D: -2%; E: -7%; F: 12%

mol: Cc1c(/C=N/NC(=O)c2ccccc2O)c2ccccn2c1C(=O)c1ccc(F)cc1
  A: -12%; B: 28µM*; C: -3; D: -2%; E: -18%; F: 18%

mol: CC1=NN(C(N)=S)C(=O)C1N=Nc1ccc(F)cc1 (stereo not drawn)
  A: -55%; B: -1%; C: 1; D: x; E: -2%; F: 25µM*

mol: CN(C)c1ccc(/C=C/c2ccnc3ccccc23)cc1
  A: x; B: 8%; C: x; D: x; E: x; F: x

mol: Cc1cccc2cc(C#N)c(SCC(=O)N3CC(=O)Nc4ccccc43)nc12
  A: 21%; B: 4%; C: 0; D: 20µM*; E: -14%; F: 6%

mol: CC(=O)N[C@@H](C)C(=O)NCC1Cc2cc(C)cc(-c3cnccn3)c2O1 (stereo partly drawn)
  A: x; B: 0%; C: x; D: x; E: x; F: x

mol: O=C(CN1CCCC1)N/N=C/c1c(O)ccc2ccccc12
  A: 14%; B: 7%; C: -2; D: x; E: 5µM*; F: x

mol: COc1cc(N2CCCC2)c(OC)cc1/C=c1/sc2nc3ccccc3n2c1=O
  A: -9%; B: x; C: x; D: 2.8µM*; E: x; F: 16%

mol: O=C(O)Cn1cc(/C=c2/sc3nc4ccccc4n3c2=O)c2ccccc21
  A: -45%; B: 1%; C: 166*; D: 9%; E: -10%; F: u

mol: COc1ccc(C(=O)NCCN2Cc3cc(C)ccc3OC(C)C2)c(OC)n1 (stereo not drawn)
  A: x; B: -1%; C: x; D: x; E: x; F: x

mol: CCc1ccc(OCC(=O)Nc2cc3oc4ccccc4c3cc2OC)c(Br)c1
  A: 1%; B: 3%; C: x; D: -1%; E: x; F: x

mol: COc1cc2c(cc1NC(=O)COc1ccccc1OC)oc1ccccc12
  A: -4%; B: 14µM*; C: -2; D: -5%; E: x; F: 2%

mol: CS(=O)(=O)c1ccc(-c2ccc3c(c2)CC(CNC(=O)C2(N4CCOCC4)CCCCC2)O3)cc1 (stereo not drawn)
  A: x; B: 0%; C: x; D: x; E: x; F: x

mol: N=c1ccn(Cc2ccc(Cl)cc2)cc1
  A: u; B: u; C: -3; D: -3%; E: -17%; F: -8%

mol: N=c1ccn(Cc2ccc(Cl)c(Cl)c2)cc1
  A: u; B: 40µM*; C: 3; D: 0%; E: -13%; F: -10%

mol: COc1ccccc1C(=O)N1CCOc2ccc(C(C)(O)CCn3cccn3)cc2C1 (stereo not drawn)
  A: x; B: 0%; C: x; D: x; E: x; F: x

mol: CN(Cc1cc(Cl)cc(Cl)c1)[C@H]1C[C@H]2c3[nH]c4ccccc4c3CCN2C(=O)[C@H]1CO
  A: x; B: 45µM*; C: -3; D: x; E: x; F: x

mol: CN(C(=O)C(C)(C)C)[C@H]1C[C@H]2c3[nH]c4ccccc4c3CCN2C(=O)[C@H]1CO
  A: x; B: 1%; C: -2; D: x; E: x; F: x

mol: CC(C)(CO)NC(=O)c1cnn(-c2nccc(-c3ccc4c(c3)OCO4)n2)c1C1CC1
  A: x; B: 0%; C: x; D: x; E: x; F: x

mol: COc1ccc(Cl)cc1NC(=O)CN(C)C(=O)c1cc2c(F)cccc2s1
  A: x; B: 5%; C: 1; D: x; E: 6.3µM*; F: -6%

mol: COc1ccc(Cl)cc1NC(=O)CN(C)CC(=O)Nc1cc(OC)c(OC)c(OC)c1
  A: 17%; B: 2%; C: -4; D: x; E: 3.5µM*; F: -9%

mol: CCOc1ccc2nc(N3C(=O)/C(=C/c4ccccc4)NC3=S)sc2c1
  A: -55%; B: u; C: 0; D: 1%; E: -5%; F: 13µM*

mol: COc1ccc(C(=O)NCC2Cc3cccc(-c4cncnc4)c3O2)c(OC)c1OC (stereo not drawn)
  A: x; B: -1%; C: x; D: x; E: x; F: x

3 of the compounds above, with two lines to a compound.
Each structure is followed by: miR-21 reporter	PINK1 expr mod	IL2 activator	Epigenetic derep	uPA generation	p53 reactivation
> O=C(O)Cn1cc(/C=c2/sc3nc4ccccc4n3c2=O)c2ccccc21
    -45%	1%	166*	9%	-10%	u
> COc1ccc(C(=O)NCCN2Cc3cc(C)ccc3OC(C)C2)c(OC)n1 (stereo not drawn)
    x	-1%	x	x	x	x
> CCc1ccc(OCC(=O)Nc2cc3oc4ccccc4c3cc2OC)c(Br)c1
    1%	3%	x	-1%	x	x

Screening data as filed in PubChem BioAssay.
